Results as given in ChEMBL document CHEMBL1135942, “Synthesis of 5,6-dihydro-11H-benzo[5,6]-cyclohepta[1,2-b]pyridin-11-ylidene)-1-piperidine-N-cyanoguanidine derivatives as inhibitors of ras farnesyl protein transferase” (Bioorg Med Chem Lett, 2002).

Molecular target: Protein farnesyltransferase (Homo sapiens, UniProt P49354+P49356)
Test: FPT inhibitory activity was determined by the ability to inhibit the transfer of [3H]farnesyl from farnesyl pyrophosphate to H-ras-CLVS
Assay type: protein-complex assay

SMILES	IC50
N#CN=C(Nc1cccnc1)N1CCC(=C2c3ccc(Cl)cc3CCc3cc(Br)cnc32)CC1	43 nM
COc1ccc(N/C(=N\C#N)N2CCC(=C3c4ccc(Cl)cc4CCc4cc(Br)cnc43)CC2)cc1	43 nM
